Measurements as given in patent publication US7030093B2, “Antibiotic coating for porous bodies and method for its production as well as its use” (HERAEUS Kulzer GmbH & Co. KG, priority 2002, dated 2006).

Test: Release of the antibiotic from the salts in an aqueous environment (finding in words)
Assay type: physicochemical
Conditions: method not given

Row | Substance | Release of the underlying antibiotic in an aqueous environment
1 | kanamycin myristate | in a delayed fashion
2 | kanamycin dodecyl sulfate | in a delayed fashion
3 | kanamycin laurate | in a delayed fashion
